Values of other authors, collected in patent publication US9956304B2, “Contrast agents, methods for preparing contrast agents, and methods of imaging” (GEORGIA STATE UNIVERSITY RESEARCH FOUNDATION, INC., priority 2012, dated 2018).

Protein sequences, listed by entry. Tags and fused reporters are not part of them. Lines headed by an entry give the natural chain unless they say otherwise; changes in a name come on top.
UniProt P30550: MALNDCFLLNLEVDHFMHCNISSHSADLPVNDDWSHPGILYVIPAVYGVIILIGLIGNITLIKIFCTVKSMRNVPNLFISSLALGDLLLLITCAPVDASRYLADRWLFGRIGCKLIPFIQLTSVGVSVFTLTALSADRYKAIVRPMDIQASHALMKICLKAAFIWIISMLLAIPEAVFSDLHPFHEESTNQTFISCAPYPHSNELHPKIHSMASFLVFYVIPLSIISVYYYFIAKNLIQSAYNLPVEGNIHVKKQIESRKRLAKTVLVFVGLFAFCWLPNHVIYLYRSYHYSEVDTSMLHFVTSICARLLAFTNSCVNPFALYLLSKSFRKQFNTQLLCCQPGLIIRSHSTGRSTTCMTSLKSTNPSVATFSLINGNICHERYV
UniProt P07492: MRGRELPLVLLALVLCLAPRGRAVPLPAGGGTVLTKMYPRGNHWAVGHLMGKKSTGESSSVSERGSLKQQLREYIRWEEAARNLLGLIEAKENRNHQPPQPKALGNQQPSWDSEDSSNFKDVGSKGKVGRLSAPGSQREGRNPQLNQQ

Target: GRPR (Homo sapiens, UniProt P30550)
Conditions: read-out: binding affinity to GRPR; cited from earlier work

GRP: gastrin release peptide, human homolog of bombesin (VPLPAGGGTVLTKMYPRGNHWAVGHLM; Gastrin-releasing peptide; UniProt P07492 24-50, looked up)
Kd: ~6.6 nM
